Structures can show the parent of a compound that is named as a salt.
Tested on: oxazolone-induced colitis in SJL/J mice
Conditions: 10 mg/kg i.p. twice a day from day 6
Procedure: Oxazolone colitis is induced as described (Fuss I. J. et al. (2002) J. Immunol. 168: 900). Briefly, mice are pre-sensitized by skin epicutaneous application of 3% oxazolone (4-ethoxymethylene-2-phenyl-2oxazolin-5-one, Sigma) in 100% EtOH (150 μl) on day 0, followed by intrarectal administration of 1% oxazolone in 50% EtOH (100 μl) to anesthetized SJL/J male mice on day 5 through a 3.5 F catheter inserted 4 cm proximal to the anal verge. Mice are divided in three treatment groups and injected i.p. twice a day with: PBS and a compound of the invention. Injections are initiated at day 0 and are continued through day 7 or the end of the study.
A study was carried out using the protocol in Example 20 for oxazolone-induced colitis. Injections were initiated at day 0 and were continued through the end of the study. Disease progression was evaluated for 12 days (6 days after intrarectal administration) by monitoring survival rates and body weight, as well as by macroscopic evidence of colitis (i.e. rectal prolapse, colon size, colon weight). […] Kaplan-Meyer survival curves and unpaired t tests were calculated using GraphPad Prism software (San Diego, Calif.).
Thus, animals from a similar study were sacrificed seven days after initial sensitization and their colons removed and fixed in 1% formalin. […] Kaplan-Meyer survival curves were calculated using GraphPad Prism software (San Diego, Calif.).

C=C(CNN)c1ccccc1 [Example 2, Hydrochloride]
survival, administration after disease onset: significant impact

Source: patent US20050096360A1, “Inhibitors of semicarbazide-sensitive amine oxidase (SSAO) and VAP-1 mediated adhesion useful for treatment of diseases” (priority 2003, published 2005)
